Data as given in ChEMBL document CHEMBL4325830, “Novel Modes of Inhibition of Wild-Type Isocitrate Dehydrogenase 1 (IDH1): Direct Covalent Modification of His315” (J Med Chem, 2018).

Protein sequences, listed by entry. Tags and fused reporters are not part of them.
UniProt O75874, whole entry: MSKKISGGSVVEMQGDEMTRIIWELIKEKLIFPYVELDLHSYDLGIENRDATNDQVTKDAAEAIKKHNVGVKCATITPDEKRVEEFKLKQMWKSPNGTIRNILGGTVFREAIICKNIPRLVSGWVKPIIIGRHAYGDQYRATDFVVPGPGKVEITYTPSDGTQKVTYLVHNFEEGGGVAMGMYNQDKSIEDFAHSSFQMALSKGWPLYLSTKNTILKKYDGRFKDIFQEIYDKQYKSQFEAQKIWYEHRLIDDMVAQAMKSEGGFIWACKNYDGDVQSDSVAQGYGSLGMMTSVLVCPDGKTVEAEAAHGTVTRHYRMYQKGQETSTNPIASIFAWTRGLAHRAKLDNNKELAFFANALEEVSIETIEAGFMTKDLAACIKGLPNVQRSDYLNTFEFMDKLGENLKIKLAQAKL

Molecular target: Isocitrate dehydrogenase [NADP] cytoplasmic (Homo sapiens, UniProt O75874)
Test: Inhibition of C-terminal 8-His tagged wild type human IDH1 (1 to 414 residues) expressed in Escherichia coli BL21(DE3)-T1R preincubated for 15 mins using isocitrate as substrate in presence of NADP by diaphorase/resazurin coupled fluorescence assay

## C[C@H](O)c1cccc(NC(=O)c2nn(Cc3ccc(F)cc3)c3c2CN(C(=O)c2ccc[nH]2)C[C@H]3C)c1
  IC50: 970 nM

## C[C@@H]1CN(C(=O)c2ccc[nH]2)Cc2c(C(=O)Nc3cccc([C@@H](C)O)c3)nn(Cc3ccc(F)cc3)c21
  IC50: 120 nM
